Where two headings read alike, the source gives them in different places.
How the values were obtained:
[1] = target: T1, CYP1B1 (Homo sapiens, UniProt Q16678); test: EROD assay in inducible CYP1B1 cell line; type: cell-based; conditions: Table 2
T1 construct: expressed in transfected cells
T1 sequence (Q16678 1-543): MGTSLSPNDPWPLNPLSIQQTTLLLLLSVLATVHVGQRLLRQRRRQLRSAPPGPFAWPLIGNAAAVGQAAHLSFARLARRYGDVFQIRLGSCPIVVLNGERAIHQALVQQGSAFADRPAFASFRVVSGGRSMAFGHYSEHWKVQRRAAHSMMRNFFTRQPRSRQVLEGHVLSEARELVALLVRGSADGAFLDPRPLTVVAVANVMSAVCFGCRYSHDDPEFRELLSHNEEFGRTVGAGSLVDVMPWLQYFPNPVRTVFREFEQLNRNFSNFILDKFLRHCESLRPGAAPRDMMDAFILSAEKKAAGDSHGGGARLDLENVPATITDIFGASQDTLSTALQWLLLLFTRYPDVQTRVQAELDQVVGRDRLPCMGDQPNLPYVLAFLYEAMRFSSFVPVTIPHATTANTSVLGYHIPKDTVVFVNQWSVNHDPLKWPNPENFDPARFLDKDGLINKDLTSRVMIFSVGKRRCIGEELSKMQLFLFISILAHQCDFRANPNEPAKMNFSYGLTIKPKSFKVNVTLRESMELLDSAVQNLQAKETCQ

Protein sequences, listed by entry. Tags and fused reporters are not part of them. Residues count along the entry.
UniProt P05177, 2-516: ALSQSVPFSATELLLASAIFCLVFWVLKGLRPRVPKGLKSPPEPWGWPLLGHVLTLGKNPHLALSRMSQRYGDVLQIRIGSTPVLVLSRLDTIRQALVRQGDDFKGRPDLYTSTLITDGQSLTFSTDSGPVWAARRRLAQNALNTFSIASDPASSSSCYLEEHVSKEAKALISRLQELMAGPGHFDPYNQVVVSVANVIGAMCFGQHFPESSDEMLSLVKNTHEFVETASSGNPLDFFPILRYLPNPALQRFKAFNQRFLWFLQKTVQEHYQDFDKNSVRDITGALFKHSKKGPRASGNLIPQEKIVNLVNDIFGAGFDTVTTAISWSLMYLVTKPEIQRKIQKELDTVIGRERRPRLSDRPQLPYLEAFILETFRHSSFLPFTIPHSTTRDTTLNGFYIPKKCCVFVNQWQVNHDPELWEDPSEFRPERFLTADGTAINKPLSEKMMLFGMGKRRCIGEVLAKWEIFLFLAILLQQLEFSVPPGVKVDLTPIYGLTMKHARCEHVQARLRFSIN

[2] = target: T2, CYP1A1 (Homo sapiens, UniProt P04798); test: EROD assay in CYP1A1 counter-screen cell line; type: cell-based; conditions: for SI 1B1:1A1: selectivity index
T2 construct: expressed in transfected cells
T2 sequence (P04798 1-512): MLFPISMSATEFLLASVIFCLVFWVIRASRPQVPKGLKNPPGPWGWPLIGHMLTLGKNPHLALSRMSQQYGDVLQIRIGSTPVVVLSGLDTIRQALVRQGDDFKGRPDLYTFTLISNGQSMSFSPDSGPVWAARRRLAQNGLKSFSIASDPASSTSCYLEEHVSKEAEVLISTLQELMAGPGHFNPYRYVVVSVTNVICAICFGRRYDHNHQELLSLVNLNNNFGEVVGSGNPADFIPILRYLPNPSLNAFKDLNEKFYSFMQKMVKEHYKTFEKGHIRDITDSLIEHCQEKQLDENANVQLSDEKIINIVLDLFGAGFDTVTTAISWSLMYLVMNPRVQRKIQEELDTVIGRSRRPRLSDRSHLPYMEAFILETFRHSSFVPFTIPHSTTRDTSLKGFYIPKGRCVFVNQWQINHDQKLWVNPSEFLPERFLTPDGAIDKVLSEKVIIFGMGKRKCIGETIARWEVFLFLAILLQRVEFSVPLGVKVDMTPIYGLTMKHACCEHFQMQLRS

[3] = target: pooled human liver microsomes (pHLMs) (Homo sapiens, UniProt P05177); test: EROD counterscreen in pooled human liver microsomes; type: biochemical; conditions: selectivity index
[4] = Table 2, EROD assay, read-out: IC50 CYP1A1

SMILES | IC50 [1] [nM] | IC50 [2, 4] [µM] | SI 1B1:1A1 [2] | also measured
COc1ccc(-c2csc(-c3ccc(OC)cc3OC)n2)c(OC)c1 [GL660] | 6.2 | 5.65 | – | –
COc1ccc(-c2nc(-c3cccnc3)cs2)c(OC)c1 [GL661] | – | – | 4.7 | IC50 ([2]; IC50 CYP1A1, Table 2, EROD assay): 0.0255 µM; SI 1B1:HLM [3]: 0.0015
COc1ccc(-c2nc(-c3ccc(C#N)cc3)cs2)c(OC)c1 [GL662] | 0.0208 | 0.525 | 25259 | –
COc1ccc(-c2nc(-c3ccc(O)cc3)cs2)c(OC)c1 [GL673] | – | 1.98 | – | –
COc1ccc(-c2csc(-c3ccc(OC)cc3OC)n2)cc1 [GL679] | 25 | 2.88 | – | –
COc1cc(/C=C/c2ccc(OC)cc2OC)cc(OC)c1 [TMS, reference compound] | – | – | – | IC50 ([2]; Table 1, read-out: CYP1A1 IC50): 1.5 µM; IC50 ([2]; Table 3, read-out: IC50 1A1): 1.5 µM

Reference: US20210246109A1, “POTENT AND SELECTIVE INHIBITORS OF CYTOCHROME P450” (University of Kentucky Research Foundation, priority 2020, published 2021)
